The values below come from the OPERA property sets (Mansouri et al. 2018).

Turning to `CN(C)P(=O)(F)N(C)C`, the log10 OH rate constant (cm³/molecule/s) is -10.2.
